How the values were obtained:
Assay in all cases: Octet
1C11_H3_L3.142 = target: 1C11_H3_L3.142
1C11_H3_L3.141 = target: 1C11_H3_L3.141
[1] = target: 1C11_H3.239_L3.144 (XENP25825)
[2] = target: 1C11_H3.239_L3.148 (XENP25828)
[3] = target: 1C11_H3.240_L3.144 (XENP25826)
[4] = target: 1C11_H3.241_L3.148 (XENP25830)
[5] = target: 1C11_H3.240_L3.148 (XENP25829)
[6] = target: 1C11_H3.241_L3.144 (XENP25827)
1C11_H3_L3.86 = target: 1C11_H3_L3.86
1C11_H3_L3.47 = target: 1C11_H3_L3.47
1C11_H3_L3.124 = target: 1C11_H3_L3.124
1C11_H3_L3.23 = target: 1C11_H3_L3.23
1C11_H3_L3.81 = target: 1C11_H3_L3.81
1C11_H3_L3.132 = target: 1C11_H3_L3.132
1C11_H3_L3.15 = target: 1C11_H3_L3.15
[7] = target: 1C11_H3.225_L3 (XENP25324)
[8] = target: 1C11_H3.223_L3 (XENP25322)
[9] = target: 1C11_H3.224_L3 (XENP25323)
[10] = target: 1C11_H3.226_L3 (XENP25325)
1C11_H3.188_L3 = target: 1C11_H3.188_L3
1C11_H3.143_L3 = target: 1C11_H3.143_L3
1C11_H3.147_L3 = target: 1C11_H3.147_L3
1C11_H3.91_L3 = target: 1C11_H3.91_L3
1C11_H3.96_L3 = target: 1C11_H3.96_L3
1C11_H3.42_L3 = target: 1C11_H3.42_L3
1C11_H3.25_L3 = target: 1C11_H3.25_L3
1C11_H3.35_L3 = target: 1C11_H3.35_L3
1C11_H3.5_L3 = target: 1C11_H3.5_L3
1C11_H3.41_L3 = target: 1C11_H3.41_L3
1C11_H3.146_L3 = target: 1C11_H3.146_L3
1C11_H3.95_L3 = target: 1C11_H3.95_L3
1C11_H3.120_L3 = target: 1C11_H3.120_L3
1C11_H3.1_L3 = target: 1C11_H3.1_L3
1C11_H3.90_L3 = target: 1C11_H3.90_L3
1C11_H3.97_L3 = target: 1C11_H3.97_L3
1C11_H3.148_L3 = target: 1C11_H3.148_L3
1C11_H3.125_L3 = target: 1C11_H3.125_L3
1C11_H3.18_L3 = target: 1C11_H3.18_L3
1C11_H3.134_L3 = target: 1C11_H3.134_L3
1C11_H3.129_L3 = target: 1C11_H3.129_L3
1C11_H3.86_L3 = target: 1C11_H3.86_L3
1C11_H3.7_L3 = target: 1C11_H3.7_L3

Kd (1C11_H3_L3.142): 35.5 nM
Kd (1C11_H3_L3.141): 33.7 nM
Kd [1]: 42.6 nM
Kd [2]: 44.7 nM
Kd [3]: 43.1 nM
Kd [4]: 33.3 nM
Kd [5]: 27.5 nM
Kd [6]: 40.5 nM
Kd (1C11_H3_L3.86): 19.4 nM
Kd (1C11_H3_L3.47): 12.1 nM
Kd (1C11_H3_L3.124): 16.2 nM
Kd (1C11_H3_L3.23): 38.7 nM
Kd (1C11_H3_L3.81): 23.3 nM
Kd (1C11_H3_L3.132): 16.3 nM
Kd (1C11_H3_L3.15): 15 nM
Kd [7]: 32.2 nM
Kd [8]: 32.1 nM
Kd [9]: 30.6 nM
Kd [10]: 33.5 nM
Kd (1C11_H3.188_L3): 53.2 nM
Kd (1C11_H3.143_L3): 31.9 nM
Kd (1C11_H3.147_L3): 20.4 nM
Kd (1C11_H3.91_L3): 24.7 nM
Kd (1C11_H3.96_L3): 23 nM
Kd (1C11_H3.42_L3): 27.8 nM
Kd (1C11_H3.25_L3): 34 nM
Kd (1C11_H3.35_L3): 69.2 nM
Kd (1C11_H3.5_L3): 19.1 nM
Kd (1C11_H3.41_L3): 34.4 nM
Kd (1C11_H3.146_L3): 23 nM
Kd (1C11_H3.95_L3): 20 nM
Kd (1C11_H3.120_L3): 21.4 nM
Kd (1C11_H3.1_L3): 24.2 nM
Kd (1C11_H3.90_L3): 25.3 nM
Kd (1C11_H3.97_L3): 24.2 nM
Kd (1C11_H3.148_L3): 22.6 nM
Kd (1C11_H3.125_L3): 18 nM
Kd (1C11_H3.18_L3): 15.6 nM
Kd (1C11_H3.134_L3): 21.7 nM
Kd (1C11_H3.129_L3): 23.7 nM
Kd (1C11_H3.86_L3): 19 nM
Kd (1C11_H3.7_L3): 41.9 nM
B1: PD-1 (receptor)
chain: LDSPDRPWNPPTFSPALLVVTEGDNATFTCSFSNTSESFVLNWYRMSPSNQTDKLAAFPEDRSQPGQDCRFRVTQLPNGRDFHMSVVRARRNDSGTYLCGAISLAPKAQIKESLRAELRVTERRAEVPTAHPSPSPRPAGQFQ
